Laboratory results: publication PMC4549708, “Inhibition of neuraminidase by Ganoderma triterpenoids and implications for neuraminidase inhibitor design” (Scientific Reports, 2015)

Target: NA (H1N1,09) (Influenza A virus, UniProt C3W5S3)
Experiment: biochemical
Details: for inhibition at 200 µM: 200 μM of each compound, n = 3, means ± standard deviation, read-out: Inhibition rate (%) NA(H1N1,09)

C/C(=C\CC[C@@H](C)[C@H]1C[C@H](O)[C@@]2(C)C3=CC[C@H]4C(C)(C)C(=O)CC[C@]4(C)C3=CC[C@]12C)C(=O)O [Compound 2, Ganoderic acid TR]
inhibition at 200 µM: 87.4 ± 1.6% | IC50 (in vitro NA inhibition assay (n = 3)): 4.6 ± 1.7 µM

C[C@H](CC[C@H](O)C(C)(C)O)[C@H]1CC[C@@]2(C)C3=CC[C@H]4C(C)(C)C(=O)CC[C@]4(C)C3=CC[C@]12C [Compound 28, Ganodermanondiol]
inhibition at 200 µM: 53.1 ± 2.5%
